# Results as given in ChEMBL document CHEMBL2331500, “Bioactive flavaglines and other constituents isolated from Aglaia perviridis” (J Nat Prod, 2013).
# Amino acid sequences for entries named in this document (tags omitted).
# UniProt Q04206, whole entry: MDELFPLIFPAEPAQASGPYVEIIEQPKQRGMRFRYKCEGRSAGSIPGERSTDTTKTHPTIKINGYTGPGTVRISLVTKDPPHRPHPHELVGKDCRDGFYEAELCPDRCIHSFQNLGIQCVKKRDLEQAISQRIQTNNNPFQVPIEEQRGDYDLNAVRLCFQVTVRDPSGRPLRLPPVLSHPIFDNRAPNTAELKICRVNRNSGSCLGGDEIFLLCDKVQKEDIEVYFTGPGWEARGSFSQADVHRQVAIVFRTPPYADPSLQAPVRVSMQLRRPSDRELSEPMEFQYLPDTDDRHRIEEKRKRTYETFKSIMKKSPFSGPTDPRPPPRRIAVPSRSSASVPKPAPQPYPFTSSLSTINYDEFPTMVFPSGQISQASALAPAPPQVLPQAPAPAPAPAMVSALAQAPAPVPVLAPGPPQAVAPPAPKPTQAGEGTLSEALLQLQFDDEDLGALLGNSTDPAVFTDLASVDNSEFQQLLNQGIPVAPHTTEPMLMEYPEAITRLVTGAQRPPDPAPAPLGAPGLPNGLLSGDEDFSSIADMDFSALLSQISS
# Biological target: Transcription factor p65 (Homo sapiens) (UniProt Q04206)
# Assay: Inhibition of NF-kappaB p65 (unknown origin) by ELISA
smiles,measurement,value
COc1ccc([C@@]23Oc4cc(OC)cc(OC)c4[C@]2(O)[C@H](O)[C@H](C(=O)N(C)C)[C@H]3c2ccccc2)cc1 [ROCAGLAMIDE],ED50,80 nM
